Measured values taken from PMC10470302 (iScience, 2023).

Chains of the proteins cited; added tags and fusions are not shown.
UniProt Q8IWX8, whole entry, looked up, tested part not stated: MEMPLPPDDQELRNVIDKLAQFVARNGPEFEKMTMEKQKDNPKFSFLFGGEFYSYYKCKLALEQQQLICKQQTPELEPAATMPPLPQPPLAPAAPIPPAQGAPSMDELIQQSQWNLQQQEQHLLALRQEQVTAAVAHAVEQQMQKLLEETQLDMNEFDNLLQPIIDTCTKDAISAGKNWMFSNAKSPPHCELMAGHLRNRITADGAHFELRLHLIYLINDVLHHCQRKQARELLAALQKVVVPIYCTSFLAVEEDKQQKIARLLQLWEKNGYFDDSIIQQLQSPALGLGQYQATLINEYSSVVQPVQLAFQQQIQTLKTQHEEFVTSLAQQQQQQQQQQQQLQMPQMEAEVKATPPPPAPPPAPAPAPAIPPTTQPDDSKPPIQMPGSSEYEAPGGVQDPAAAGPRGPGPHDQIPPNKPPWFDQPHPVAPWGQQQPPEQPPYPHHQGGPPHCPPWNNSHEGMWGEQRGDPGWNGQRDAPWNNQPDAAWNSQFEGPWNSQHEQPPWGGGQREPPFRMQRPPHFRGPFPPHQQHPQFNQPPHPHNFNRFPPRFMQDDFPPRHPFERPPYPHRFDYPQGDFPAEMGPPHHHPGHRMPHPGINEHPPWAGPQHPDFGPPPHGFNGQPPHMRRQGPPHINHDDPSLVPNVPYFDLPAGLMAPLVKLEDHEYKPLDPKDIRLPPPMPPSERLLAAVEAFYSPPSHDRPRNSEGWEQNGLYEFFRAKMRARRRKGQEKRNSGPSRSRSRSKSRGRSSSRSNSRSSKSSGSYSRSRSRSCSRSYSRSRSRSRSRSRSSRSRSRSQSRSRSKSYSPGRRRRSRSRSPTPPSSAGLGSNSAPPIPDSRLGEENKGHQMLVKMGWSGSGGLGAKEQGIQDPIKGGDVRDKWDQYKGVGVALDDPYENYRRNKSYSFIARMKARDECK

Target: CHERP (SCAF6) 1-916 (UniProt Q8IWX8)
Test: immunofluorescence colocalisation, Pearson coefficient
Details: reference: untreated cells; sites S2,T4

Substance: RPB1 (largest subunit of RNA polymerase II), CTD 2 µM flavopiridol, 3 h
- other: colocalisation correlation value: weaker; reference 0.77
